Consider 20 molecules from US20250361280A1 (Protagonist Therapeutics, Inc., priority 2022, published 2025).

Assay [1] has as its target T1, ferroportin (Homo sapiens, UniProt Q9NP59).
T1 sequence (Q9NP59 1-571): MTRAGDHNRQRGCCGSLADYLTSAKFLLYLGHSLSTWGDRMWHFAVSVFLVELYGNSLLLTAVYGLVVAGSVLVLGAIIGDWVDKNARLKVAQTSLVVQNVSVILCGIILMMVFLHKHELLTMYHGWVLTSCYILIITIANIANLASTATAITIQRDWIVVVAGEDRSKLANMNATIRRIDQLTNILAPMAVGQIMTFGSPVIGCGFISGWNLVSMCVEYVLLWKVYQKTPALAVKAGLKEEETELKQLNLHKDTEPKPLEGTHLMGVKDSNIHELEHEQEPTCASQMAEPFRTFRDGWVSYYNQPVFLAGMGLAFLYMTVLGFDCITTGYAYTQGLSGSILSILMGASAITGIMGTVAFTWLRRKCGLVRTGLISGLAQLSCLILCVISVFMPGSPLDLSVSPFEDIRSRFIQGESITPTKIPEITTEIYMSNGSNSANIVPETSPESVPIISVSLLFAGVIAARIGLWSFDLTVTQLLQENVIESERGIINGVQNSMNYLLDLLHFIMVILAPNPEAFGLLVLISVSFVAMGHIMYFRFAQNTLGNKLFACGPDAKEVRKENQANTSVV
The experiment in a line: T47D internalization assay in presence of mouse serum albumin. Format: cell-based. Set-up: a human breast carcinoma adherent cell line which endogenously expresses ferroportin; host or cells: T47D. The following applies: T47D cells, 0.5% mouse serum albumin, 1 hr incubation. The method in brief:
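T47D cells exposed 1 h to 10-point peptide dilutions (top ~5 μM) preincubated 30 min with 0.5% mouse serum albumin. Then 200 nM AF647-labelled ferroportin-binding detection peptide for 2 h. Flow cytometry MFI of live singlets, IC50 by 4-parameter fit.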

The target of assay [2] is T1, ferroportin. Kind of assay: FPN internalization assay (FPN activity assay), loss of ferroportin-GFP fluorescence. Format: cell-based.
Where [3] appears, read: Table 1C, read-out: IC50: T47D MSA.
Setting [4] is: Table 1C, HEK293 cells stably expressing ferroportin-GFP, compound at least 18 hours, read-out: IC50: FPN.
Where [5] appears, read: Table 1D, read-out: IC50: T47D MSA.
Where [6] appears, read: Table 1D, HEK293 cells stably expressing ferroportin-GFP, compound at least 18 hours, read-out: IC50: FPN.

In general, IC50 refers to the concentration that inhibits the measured activity by half. For `CCCCCCCCCCCCCCCC(=O)NCC[N+](C)(C)CC(=O)NCCCCCC(=O)NCCCC[C@H](NC(=O)[C@@H]1C[C@@H]2CN1C(=O)[C@H](C(c1ccccc1)c1ccccc1)NC(=O)[C@H](Cc1c[nH]cn1)NC(=O)[C@@H](NC(=O)[C@H](CCC(=O)O)NC(=O)CC(C)C)CSS2)C(=O)NCCCCc1ccccc1` [compound 22], the IC50 was in the range of 10 to 100 nM on ferroportin [1] (setting [3]) and 1 to 30 nM at ferroportin [2] (setting [4]).

Turning to `CC(C)CC(=O)N[C@@H](CCC(=O)O)C(=O)N[C@H](C(=O)N[C@@H](Cc1c[nH]cn1)C(=O)N[C@H](C(=O)N1CCC[C@H]1C(=O)N[C@H](C(=O)N(C)[C@@H](CCCCNC(=O)CCCCCNC(=O)C[N+](C)(C)CCNC(=O)CCCCCCCCCCCCCCCCC(=O)O)C(=O)N[C@@H](Cc1ccc(-c2ccccc2)cc1)C(=O)N[C@H](CCCCN)C(N)=O)C1CCCCC1)C(c1ccccc1)c1ccccc1)[C@@H](C)O` [compound 28], the figures for the IC50 on ferroportin [1] (setting [3]) and on ferroportin [2] (setting [4]) were 10 to 100 nM and 1 to 30 nM, respectively.

In the case of `CC(C)CC(=O)N[C@H]1CCC(=O)NCCCC[C@H](C(N)=O)NC(=O)[C@H](C(c2ccccc2)c2ccccc2)NC(=O)[C@H](CCCCNC(=O)CCCc2ccc(I)cc2)N(C)C(=O)[C@H](C2CCCCC2)NC(=O)[C@@H]2CCCN2C(=O)[C@H](C(c2ccccc2)c2ccccc2)NC(=O)[C@H](Cc2c[nH]cn2)NC(=O)[C@H]([C@@H](C)O)NC1=O` [compound 78], the IC50 at ferroportin [1] (setting [5]) lay in the range of 100 to 500 nM; at ferroportin [2] (setting [6]) it was 1 to 30 nM.

As for `CC(C)CC(=O)N[C@@H](CCC(=O)O)C(=O)N[C@H](C(=O)N[C@@H](Cc1c[nH]cn1)C(=O)N[C@H](C(=O)N1CCC[C@H]1C(=O)N[C@H](CCCCN)C(=O)N(CC1CC1)C(CC(C)C)C(=O)O)C(c1ccccc1)c1ccccc1)[C@@H](C)O` (stereo partly shown) [compound 150], the IC50 at ferroportin [1] (setting [5]) and on ferroportin [2] (setting [6]) was greater than 500 nM throughout.

As for `CC(C)CC(=O)N[C@@H](CCC(=O)O)C(=O)N[C@H](C(=O)N[C@@H](Cc1c[nH]cn1)C(=O)N[C@H](C(=O)N1CCC[C@H]1C(=O)N[C@@H](CCCCNC(=O)C[N+](C)(C)CCNC(=O)C[N+](C)(C)CCNC(=O)CCCc1ccc(I)cc1)C(=O)NCCCCCc1ccccc1)C(c1ccccc1)c1ccccc1)[C@@H](C)O` [compound 67], the IC50 at ferroportin [1] (setting [5]) was in the range of 10 to 100 nM; at ferroportin [2] (setting [6]) it was 30 to 100 nM.

Take `CCCCCCCCCCCCCCCC(=O)NCC[N+](C)(C)CC(=O)NCCCCCCCCCCCC(=O)NCCCC[C@H](NC(=O)[C@@H]1CCCN1C(=O)[C@@H](NC(=O)[C@H](Cc1c[nH]cn1)NC(=O)[C@@H](NC(=O)[C@H](CCC(=O)O)NC(=O)CC(C)C)[C@@H](C)O)C(c1ccccc1)c1ccccc1)C(=O)NCCCCCc1ccccc1` [compound 86]: the IC50 was 0.1 to 10 nM at ferroportin [1] (setting [5]) and 100 to 500 nM on ferroportin [2] (setting [6]).

For `CCCCCCCCCCCCCCCC(=O)N[C@@H](CCC(=O)NCC[N+](C)(C)CC(=O)NCCOCCOCCOCCOCCC(=O)NCCCC[C@H](NC(=O)[C@@H]1CCCN1C(=O)[C@@H](NC(=O)[C@H](Cc1c[nH]cn1)NC(=O)[C@@H](NC(=O)[C@H](CCC(=O)O)NC(=O)CC(C)C)[C@@H](C)O)C(c1ccccc1)c1ccccc1)C(=O)NCCCCCc1ccccc1)C(=O)O` [compound 88], the IC50 on ferroportin [1] (setting [5]) fell in the range of 0.1 to 10 nM; at ferroportin [2] (setting [6]) it was 1 to 30 nM.

For `CC(C)CC(=O)N[C@H]1CCC(=O)NCCCC[C@H](C(N)=O)NC(=O)[C@H](C(c2ccccc2)c2ccccc2)NC(=O)[C@H](CCCCNC(=O)[C@H](CN)NC(=O)CCCc2ccc(I)cc2)N(C)C(=O)[C@H](C2CCCCC2)NC(=O)[C@@H]2CSSC[C@H](NC1=O)C(=O)N[C@@H](Cc1c[nH]cn1)C(=O)N[C@@H](C(c1ccccc1)c1ccccc1)C(=O)N2` [compound 77], the IC50 at ferroportin [1] (setting [5]) and on ferroportin [2] (setting [6]) was 100 to 500 nM throughout.

Consider `CC(C)CC(=O)N[C@@H](CCC(=O)O)C(=O)N[C@H](C(=O)N[C@@H](Cc1c[nH]cn1)C(=O)N[C@H](C(=O)N1CCC[C@H]1C(=O)N(C)[C@@H](CCCCNC(=O)C[N+](C)(C)CCNC(=O)C[N+](C)(C)CCNC(=O)CCCc1ccc(I)cc1)C(=O)NCCCCCc1ccccc1)C(c1ccccc1)c1ccccc1)[C@@H](C)O` [compound 66], for which the IC50 at ferroportin [1] (setting [5]) lay within 10 to 100 nM; on ferroportin [2] (setting [6]), 30 to 100 nM.

Consider `CC(C)CC(=O)N[C@@H](CCC(=O)O)C(=O)N[C@H](C(=O)N[C@@H](Cc1c[nH]cn1)C(=O)N[C@H](C(=O)N1CCC[C@H]1C(=O)N[C@H](C(=O)N(C)[C@@H](CCCCNC(=O)COCCOCCNC(=O)COCCOCCNC(=O)[C@H](CN)NC(=O)CCCCCCCCCCCCCCCCC(=O)O)C(=O)N[C@@H](Cc1ccc(-c2ccccc2)cc1)C(=O)N[C@H](CCCCN)C(N)=O)C1CCCCC1)C(c1ccccc1)c1ccccc1)[C@@H](C)O` [compound 37], for which the IC50 on ferroportin [1] (setting [3]) was 10 to 100 nM; on ferroportin [2] (setting [4]) it was 1 to 30 nM.

Regarding `CCCCCCCCCCCCCCCC(=O)NCC[N+](C)(C)CC(=O)NCCOCCOCC(=O)NCCOCCOCC(=O)NCCCC[C@H](NC(=O)[C@@H]1CCCN1C(=O)[C@@H](NC(=O)[C@H](Cc1c[nH]cn1)NC(=O)[C@@H](NC(=O)[C@H](CCC(=O)O)NC(=O)CC(C)C)[C@@H](C)O)C(c1ccccc1)c1ccccc1)C(=O)NCCc1ccccn1` [compound 73], the IC50 on ferroportin [1] (IC50: T47D MSA (nM, Table 1D)) fell in the range of 0.1 to 10 nM; against ferroportin [2] it was 1 to 30 nM.

Take `CC(C)CC(=O)N[C@@H](CCC(=O)O)C(=O)N[C@H](C(=O)N[C@@H](Cc1c[nH]cn1)C(=O)N[C@H](C(=O)N1CCC[C@H]1C(=O)N[C@H](CCCCN)C(=O)N(CC1CC1)C(CCCCCCC(=O)O)C(N)=O)C(c1ccccc1)c1ccccc1)[C@@H](C)O` (stereo partly shown) [compound 155]: the IC50 at ferroportin [1] (IC50: T47D MSA (nM, Table 1D)) was greater than 500 nM; against ferroportin [2], greater than 500 nM.

For the molecule `CCCCCCCCCCCCCCCC(=O)NCC[N+](C)(C)CC(=O)NCCOCCOCC(=O)NCCOCCOCC(=O)NCCCC[C@H](NC(=O)[C@@H]1CCCN1C(=O)[C@@H](NC(=O)[C@H](Cc1c[nH]cn1)NC(=O)[C@@H](NC(=O)[C@H](CCC(=O)O)NC(=O)CC(C)C)[C@@H](C)O)C(c1ccccc1)c1ccccc1)C(=O)N[C@@H](Cc1ccccc1)C(=O)NCCCCC` [compound 182], the IC50 at ferroportin [1] (setting [5]) was 0.1 to 10 nM; at ferroportin [2] (setting [6]) it was 1 to 30 nM.

Regarding `CC(C)CC(=O)N[C@@H](CCC(=O)O)C(=O)N[C@H](C(=O)N[C@@H](Cc1c[nH]cn1)C(=O)N[C@H](C(=O)N1CCC[C@H]1C(=O)N[C@@H](CCCCNC(=O)CCOCCOCC[N+](C)(C)C)C(=O)NCCCCc1ccccc1)C(c1ccccc1)c1ccccc1)[C@@H](C)O` [compound 161], the IC50 at ferroportin [1] (setting [5]) fell in the range of 100 to 500 nM; on ferroportin [2] (setting [6]) it was 30 to 100 nM.

For `CCCCCCCCCCCCCCCC(=O)N[C@@H](CN)C(=O)NCCOCCOCC(=O)NCCOCCOCC(=O)NCCCC[C@H](NC(=O)[C@@H]1C[C@@H]2CN1C(=O)[C@H](C(c1ccccc1)c1ccccc1)NC(=O)[C@H](Cc1c[nH]cn1)NC(=O)[C@@H](NC(=O)[C@H](CCC(=O)O)NC(=O)CC(C)C)CCSS2)C(=O)NCCCCc1ccccc1` [compound 179], the values for the IC50 on ferroportin [1] (setting [5]) and at ferroportin [2] (setting [6]) were 100 to 500 nM and 1 to 30 nM, respectively.

Turning to `CC(C)CC(=O)N[C@@H](CCC(=O)O)C(=O)N[C@H](C(=O)N[C@@H](Cc1c[nH]cn1)C(=O)N[C@H](C(=O)N1CCC[C@H]1C(=O)N[C@H](CCCCN)C(=O)N(CCCN)C(CCCCCCC(=O)O)C(N)=O)C(c1ccccc1)c1ccccc1)[C@@H](C)O` (stereo partly shown) [compound 142], the IC50 was 100 to 500 nM at ferroportin [1] (setting [5]) and greater than 500 nM at ferroportin [2] (setting [6]).

On to `CCCCCCCCCCCCCCCC(=O)N[C@@H](CCCC[N+](C)(C)C)C(=O)NCCOCCOCC(=O)NCCOCCOCC(=O)NCCCC[C@H](NC(=O)[C@@H]1C[C@@H]2CN1C(=O)[C@H](C(c1ccccc1)c1ccccc1)NC(=O)[C@H](Cc1c[nH]cn1)NC(=O)[C@@H]1C[C@@H](CN1C(=O)[C@H](CCC(=O)O)NC(=O)CC(C)C)SS2)C(=O)NCCCCc1ccccc1` [compound 168], for which the half-maximal inhibitory concentration (IC50) at ferroportin [1] (setting [5]) is 0.1 to 10 nM; on ferroportin [2] (setting [6]) it was 1 to 30 nM.

Take `CCCCCCCCCCCCCCCC(=O)NCC[N+](C)(C)CC(=O)NCCCC[C@H](NC(=O)[C@@H]1CCCN1C(=O)[C@@H](NC(=O)[C@H](Cc1c[nH]cn1)NC(=O)[C@@H](NC(=O)[C@H](CCC(=O)O)NC(=O)CC(C)C)[C@@H](C)O)C(c1ccccc1)c1ccccc1)C(=O)NCC(c1ccccc1)c1ccccc1` [compound 24]: the IC50 at ferroportin [1] (setting [3]) was 10 to 100 nM; on ferroportin [2] (setting [4]), 1 to 30 nM.

Take `CCCCCCCCCCCCCCCC(=O)N[C@@H](CN)C(=O)NCCOCCOCC(=O)NCCOCCOCC(=O)NCCCC[C@H](NC(=O)[C@@H]1CCCN1C(=O)[C@@H](NC(=O)[C@H](Cc1c[nH]cn1)NC(=O)[C@@H](NC(=O)[C@H](CCC(=O)O)NC(=O)CC(C)C)[C@@H](C)O)C(c1ccccc1)c1ccccc1)C(=O)NCCCCc1ccccc1` [compound 203]: the IC50 on ferroportin [1] (setting [5]) fell in the range of 0.1 to 10 nM; on ferroportin [2] (setting [6]), 1 to 30 nM.

As to `CCCCCCCCCCCCCCCC(=O)NCC[N+](C)(C)CC(=O)NCCOCCOCC(=O)NCCOCCOCC(=O)NCCCC[C@H](NC(=O)[C@@H]1CCCN1C(=O)[C@@H](NC(=O)[C@H](Cc1c[nH]cn1)NC(=O)[C@@H](NC(=O)[C@H](CCC(=O)O)NC(=O)CC(C)C)[C@@H](C)O)C(c1ccccc1)c1ccccc1)C(=O)NCc1cccnc1` [compound 75], the IC50 on ferroportin [1] (setting [5]) was in the range of 0.1 to 10 nM; on ferroportin [2] (setting [6]), 1 to 30 nM.
